pKi: −log10 of the molar value. Counter-ions that a name gives are not always drawn.
Assays:
[1] = biological target: 5-hydroxytryptamine receptor 1B (Homo sapiens, UniProt P28222); experiment: PDSP Secondary Binding target: HTR1B - Compounds are tested at 10 uM concentration, plate are incubated at room temperature in the dark for 90 minutes. Reaction are stopped by vacuum filtration onto 0.3% polyethyleneimine soaked filter mats using Filtermate harvester. Scintillation cocktail is then melted onto microwave-dried filters on a hot plate and the radio activity is counted in Microbia …
[2] = biological target: Alpha-2A adrenergic receptor (Homo sapiens, UniProt P08913)
[3] = biological target: 5-hydroxytryptamine receptor 2C (Homo sapiens, UniProt P28335)

Amino acid sequences for entries named in this document (tags omitted). A change or cut given only in a name is not applied to a line headed by its entry.
UniProt P28222, whole entry: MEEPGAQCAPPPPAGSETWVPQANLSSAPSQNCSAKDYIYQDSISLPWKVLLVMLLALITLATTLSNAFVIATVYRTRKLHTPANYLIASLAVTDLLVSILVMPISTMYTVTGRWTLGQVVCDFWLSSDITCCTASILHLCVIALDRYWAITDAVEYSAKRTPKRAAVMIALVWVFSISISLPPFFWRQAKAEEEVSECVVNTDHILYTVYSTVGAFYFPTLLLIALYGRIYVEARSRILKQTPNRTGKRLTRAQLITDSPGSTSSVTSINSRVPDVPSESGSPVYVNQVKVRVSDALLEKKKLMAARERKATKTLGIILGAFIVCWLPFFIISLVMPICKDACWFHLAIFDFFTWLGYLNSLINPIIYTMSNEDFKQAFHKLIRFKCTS
UniProt P08913, whole entry: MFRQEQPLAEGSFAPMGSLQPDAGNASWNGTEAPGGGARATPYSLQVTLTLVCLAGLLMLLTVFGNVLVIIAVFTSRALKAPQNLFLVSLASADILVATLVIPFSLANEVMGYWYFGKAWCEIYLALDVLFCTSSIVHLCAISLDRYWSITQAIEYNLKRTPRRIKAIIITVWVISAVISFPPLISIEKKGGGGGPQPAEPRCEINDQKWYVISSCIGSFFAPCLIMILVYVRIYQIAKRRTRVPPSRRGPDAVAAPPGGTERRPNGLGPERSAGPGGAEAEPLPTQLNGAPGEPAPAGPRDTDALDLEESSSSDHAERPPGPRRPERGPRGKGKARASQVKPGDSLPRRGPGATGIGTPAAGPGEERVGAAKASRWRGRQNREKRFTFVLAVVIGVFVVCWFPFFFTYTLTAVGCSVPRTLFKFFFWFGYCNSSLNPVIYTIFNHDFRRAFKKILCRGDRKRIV
UniProt P28335: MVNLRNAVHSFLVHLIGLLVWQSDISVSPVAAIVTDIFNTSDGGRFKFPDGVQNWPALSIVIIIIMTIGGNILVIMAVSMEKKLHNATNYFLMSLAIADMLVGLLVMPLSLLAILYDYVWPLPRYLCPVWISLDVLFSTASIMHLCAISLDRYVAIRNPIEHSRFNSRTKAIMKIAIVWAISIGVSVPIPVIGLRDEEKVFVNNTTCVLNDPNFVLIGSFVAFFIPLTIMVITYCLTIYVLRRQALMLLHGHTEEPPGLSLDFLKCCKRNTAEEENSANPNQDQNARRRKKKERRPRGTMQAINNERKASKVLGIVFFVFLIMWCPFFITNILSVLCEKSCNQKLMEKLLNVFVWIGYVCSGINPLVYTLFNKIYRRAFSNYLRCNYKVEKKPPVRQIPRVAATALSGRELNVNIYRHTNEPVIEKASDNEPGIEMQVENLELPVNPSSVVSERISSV

| pKi [1] | pKi [2] | pKi [3] | Compound |
| --- | --- | --- | --- |
| 7.64 |  |  | CN[C@@H]1CCc2[nH]c3ccc(C(N)=O)cc3c2C1 [FROVATRIPTAN SUCCINATE] |
| 6.63 |  |  | COC(=O)[C@H]1[C@H]2C[C@H]3c4[nH]c5ccccc5c4CCN3C[C@H]2CC[C@@H]1O [RAUWOLSCINE HYDROCHLORIDE] |
|  | 5.86 | 6.60 | CCc1nn(CCCN2CCN(c3cccc(Cl)c3)CC2)c(=O)n1CCOc1ccccc1 [NEFAZODONE HYDROCHLORIDE] |
